## Binding of CDR-mutated scFvs to a peptide of the spike HR2 region

Source: Engelhart et al. 2022 (doi:10.1038/s41597-022-01779-4), MIT Lincoln Laboratory and A-Alpha Bio; data file from the FLAb repository.

Antigen: PDVDLGDISGINAS, a 14-residue peptide of the SARS-CoV-2 spike HR2 region.

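The parent was found by panning a naive human phage display library on the peptide. In library AAYL51, one, two or three CDR residues were substituted; doubles and triples were drawn at random. In AlphaSeq, yeast of one mating type display the scFv and yeast of the other type display the target. Mating (16 h, 30 °C) was followed by selection of diploids and sequencing of their barcodes. A regression on co-assayed BCL2-family reference pairs converts the normalised counts of each replicate to an apparent Kd. There are three technical replicates.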

Each scFv is VL, a (GGGGS)3 linker, VH, as in the parent Ab-91, and differs from it in the CDRs of the heavy chain only.
VL: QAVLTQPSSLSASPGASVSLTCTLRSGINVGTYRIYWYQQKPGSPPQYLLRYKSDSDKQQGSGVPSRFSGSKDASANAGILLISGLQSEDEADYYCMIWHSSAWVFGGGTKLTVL
VH: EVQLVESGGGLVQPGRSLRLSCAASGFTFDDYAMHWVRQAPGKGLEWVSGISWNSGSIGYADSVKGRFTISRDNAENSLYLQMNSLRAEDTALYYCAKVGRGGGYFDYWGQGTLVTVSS

Variants are written as CDR1, CDR2 and CDR3 of the heavy chain (limits as in the source). Parent: GFTFDDYAMH, GISWNSGSIGYADSVK, VGRGGGYFDY.
The read-out is the apparent dissociation constant on a log10 scale (nM): the lower, the stronger.
"n.d." means that the variant was in the library but no mating with the target was seen in that replicate; the authors take this as a sign of poor binding, and no number exists.
Empty control strains, which show no peptide, gave a signal in 21% of pairings with library AAYL51; the median was 4.54 and 95% of these signals were weaker than 3.26. No background was subtracted. The control count says in how many pairings with the empty strains this scFv gave a signal, with their mean in brackets.

CDR-H1	CDR-H2	CDR-H3	replicates, log10 nM	signal with controls
GFTFDDYAMH	GISWNSGSIGYADSNK	VVRHGGYFDY	3.08 3.51 3.18	1/9 (3.76)
GFTFDDYAMH	GISWNSGSIGYNDTPK	VGRGGGYFDY	n.d. n.d. n.d.	0/9
GFTFDDYAEH	GISWNSESICYADSVK	VGRGGGYFDY	n.d. n.d. n.d.	1/9 (4.48)
LFTFDDYAMH	GISWNSGSIGYADRSK	VGRGGGYFDY	n.d. n.d. n.d.	0/9
GFSFDDYAMH	GISWNSGIIGYADSVK	VGRGAGYFDY	n.d. n.d. n.d.	1/9 (1.74)
GFTFDDYAMG	GISWNSGSIGYAESMK	VGRGGGYFDY	4.29 5.37 4.69	6/9 (4.97)
GFTFDDYAMH	GISWNSGSAGDADSVK	VYRGGGYFDY	5.05 n.d. n.d.	2/9 (4.96)
GFTFDIYAMH	GISWNSGSIYYADSVK	VGRGGMYFDY	n.d. n.d. 3.71	1/9 (3.51)
GFTFDDYAMH	GISWNFGSIGYADSVM	VGRGGGYFDY	4.05 3.90 5.54	4/9 (4.88)
GFTFDDYAMH	GISWNGGSINYADSVK	VGRMGGYFDY	n.d. 4.99 n.d.	3/9 (5.04)
GTFFDDYAMH	GISWNSGSIGYADSVK	VGRGGGYFDY	1.98 2.03 1.70	3/9 (4.97)
GFTFDDYAMH	GSSWNSGSIGYGDSVK	VGRGGGYFDY	4.72 4.62 n.d.	8/9 (4.72)
GFTFRDYAMH	AISWNSGSIGYADSVK	VGRGGGYFDF	n.d. n.d. n.d.	1/9 (2.75)
SFTFDDYAMH	GISWWSGNIGYADSVK	VGRGGGYFDY	n.d. 5.78 4.52	0/9
GFTFDLYAHH	GISWNSGSIGYADSVK	VGRGGGYFDG	n.d. n.d. n.d.	1/9 (4.24)
GFTDDDRAMH	GISHNSGSIGYADSVK	VGRGGGYFDY	4.79 n.d. 5.18	5/9 (4.91)
GFTFDDIAMH	GISWNSGSIGYADSVK	VGRMGGYDDY	n.d. n.d. n.d.	0/9
GFTFFIYAMH	GISWNSGSIGYADSVK	VGRGGGYFDH	n.d. 4.32 3.13	0/9
GATFDDYAMH	GISWNSGSIGPADSVK	VGRGGGYFDY	n.d. n.d. n.d.	0/9
GFFFDDYAMH	GISWNSGMIGYADSVK	VGRGGGYFDY	1.55 1.67 1.63	0/9
GDTFDDYAMH	GISWNSGSISYADLVK	VGRGGGYFDY	4.31 n.d. n.d.	4/9 (5.50)
GFTFDDYAMH	GISWNSGVIGYADSVK	VGRGFGYFVY	n.d. n.d. n.d.	0/9
GFTFDDYAMH	GISWTSGSIGYADSVK	VGRGGGDFDY	n.d. n.d. n.d.	1/9 (3.58)
GFTFDDYAMH	GISWNSGSIGYADSVK	VGTGWGYEDY	3.58 n.d. n.d.	2/9 (4.04)
GFTFDDYARH	HISWNSGSIGYADSVK	VGRGGGNFDY	n.d. 5.07 n.d.	3/9 (5.03)
GFTFDDYAMH	GISWNSGSIGYADSVG	VGRKGGYFDY	n.d. n.d. n.d.	0/9
GFTFDDYAMH	GISWNSGSIYTADSVK	SGRGGGYFDY	4.61 3.83 n.d.	4/9 (4.24)
GFTFDDYAMH	GISWNSGSRGYADSVK	VGDGGGYFQY	4.42 4.50 3.69	5/9 (4.87)
GFTFDDYAMH	GLSWNSGSIGYADSVK	GGRCGGYFDY	1.75 2.01 1.96	2/9 (4.58)
GFTFDDYAMH	GIDWHSGSIGYADSVK	VGRGGGYFVY	n.d. n.d. n.d.	1/9 (3.97)
GFTFGDYAMH	TISWNSGSIGYADSVK	VGRGGGYFWY	n.d. n.d. n.d.	0/9
GFTFDDYAMH	GISWNSGSIGFPDSVK	VGRHGGYFDY	n.d. n.d. n.d.	0/9
GFTFDDYAMH	GISWNSGSNGYADSVQ	VGRGGGYVDY	4.85 n.d. n.d.	0/9
GFTFDDYAMH	GISWNSGSIGYGDSVK	VVRGGGYFDY	1.30 1.40 0.98	1/9 (4.01)
GFTADDYAMH	GASWNSGSIGYADSVK	YGRGGGYFDY	4.41 n.d. n.d.	0/9
GFRFDDYAMH	GISWNSSSIGYAHSVK	VGRGGGYFDY	2.44 2.61 2.27	2/9 (5.14)
GFTFDDYAMN	GISWNSMSIGYADQVK	VGRGGGYFDY	n.d. n.d. n.d.	0/9
GFTFDDYAMH	GISWNSGSIGYADSPK	VSRGGGTFDY	n.d. n.d. n.d.	2/9 (4.21)
GFTFDDSAMH	GISWNSGSIGYADSVK	VGRGGGYFDY	4.82 n.d. n.d.	0/9

The closing 3 entries, repeated:

{"CDR-H1": "GFTFDDYAMN", "CDR-H2": "GISWNSMSIGYADQVK", "CDR-H3": "VGRGGGYFDY", "replicates, log10 nM": "n.d. n.d. n.d.", "signal with controls": "0/9"}
{"CDR-H1": "GFTFDDYAMH", "CDR-H2": "GISWNSGSIGYADSPK", "CDR-H3": "VSRGGGTFDY", "replicates, log10 nM": "n.d. n.d. n.d.", "signal with controls": "2/9 (4.21)"}
{"CDR-H1": "GFTFDDSAMH", "CDR-H2": "GISWNSGSIGYADSVK", "CDR-H3": "VGRGGGYFDY", "replicates, log10 nM": "4.82 n.d. n.d.", "signal with controls": "0/9"}